From BindingDB's records for doi:10.1016/S1074-5521(03)00159-5 (Merck Research Laboratories, 2003)

By UniProt entry, the sequences of proteins in these tests, tags left out. Where a name states a change or a piece, a line headed by the entry shows the natural chain unless it says otherwise.
UniProt P53779: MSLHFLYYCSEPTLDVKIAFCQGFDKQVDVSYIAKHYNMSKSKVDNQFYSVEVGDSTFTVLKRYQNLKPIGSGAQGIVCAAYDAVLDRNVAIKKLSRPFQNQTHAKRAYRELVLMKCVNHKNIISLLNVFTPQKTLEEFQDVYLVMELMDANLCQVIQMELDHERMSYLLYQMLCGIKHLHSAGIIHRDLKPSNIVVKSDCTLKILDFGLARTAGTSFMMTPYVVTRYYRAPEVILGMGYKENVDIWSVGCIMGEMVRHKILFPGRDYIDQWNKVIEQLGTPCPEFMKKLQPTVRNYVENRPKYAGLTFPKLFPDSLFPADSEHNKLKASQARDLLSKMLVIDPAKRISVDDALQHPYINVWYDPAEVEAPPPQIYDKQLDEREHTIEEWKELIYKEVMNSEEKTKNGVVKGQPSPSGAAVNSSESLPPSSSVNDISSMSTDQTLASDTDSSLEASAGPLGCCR

Target: Mitogen-activated protein kinase 10 (Homo sapiens, UniProt P53779)
Test: Homogeneous Time-Resolved Fluorescence (HTRF) Enzyme Assay
Settings: pH 7; 22 °C
Description: The HTRF signal is calculated as a ratio of the A-counts to B-counts. The signal produced is proportional to the amount of JNK3 or p38 kinase activity present during the kinase reaction phase.

IC50: 7.1 nM
SMILES: CCCn1c(C2CCN(C)CC2)nc(-c2ccc(Cl)c(Cl)c2)c1-c1ccnc(NC2CC2)n1
